This note sets out measurements from PubChem BioAssay AID1654 (Sanford-Burnham Center for Chemical Genomics, 2009).

Protein sequences, listed by entry. Tags and fused reporters are not part of them. Lines headed by an entry give the natural chain unless they say otherwise; changes in a name come on top.
UniProt P51452: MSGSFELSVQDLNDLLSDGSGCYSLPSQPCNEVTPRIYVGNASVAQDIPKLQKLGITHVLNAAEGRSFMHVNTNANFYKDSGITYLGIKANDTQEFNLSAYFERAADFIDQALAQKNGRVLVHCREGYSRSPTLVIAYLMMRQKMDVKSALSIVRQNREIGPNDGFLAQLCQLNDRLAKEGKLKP

Only a part is listed here, and it is no random draw. Calls of active or inactive are those of the source. Rule as the data show it: active = inhibition above about 50%; inactive = the rest.

The test addresses Dual specificity protein phosphatase 3 (Homo sapiens) (UniProt P51452). In words: inhibition of human DUSP3 activity – biochemical, absorbance, uHTS, primary screen (AID 1654). The note with it: recombinant VHR phosphatase, pNPP absorbance; at 13.3 µM; active compounds read high.
Turning to `CCOC(=O)NC(Sc1ccccc1)C(Cl)(Cl)Cl` (stereo not drawn), the inhibition is inactive: 29.7%.

As to `Cc1ccc(NP(=O)(Oc2cccc(C)c2)Oc2cccc(C)c2)nc1`, the inhibition is inactive: 33.5%.

For `c1ccc(-c2nn[nH]n2)c(-c2nn[nH]n2)c1`, the inhibition was inactive: 16.5%.

For `CCNC(=S)/N=C(\N)N[N+](=O)[O-]`, the inhibition was inactive: 2%.

For `O=C(NC1CCS(=O)(=O)C1)NP(=S)(Oc1ccccc1)Oc1ccccc1` (stereo not drawn), the inhibition is inactive: 1.5%.

Consider `CCC(=O)N1C2C3N(C(=O)CC)C1C1N(C(=O)CC)C(C(N1C(=O)CC)N3C(=O)CC)N2C(=O)CC`, for which the inhibition is inactive: 32.9%.

On to `O=C(OC1CN2CCC1CC2)c1ccccc1` (stereo not drawn), for which the inhibition is inactive: 26.3%.

Regarding `Cc1ccc(OP(=O)(Nc2ccccn2)Oc2ccc(C)cc2)cc1`, the inhibition is inactive: 2.8%.

In the case of `CC(=O)NC(SC(=S)N(CC(C)C)CC(C)C)C(Cl)(Cl)Cl` (stereo not drawn), the inhibition was inactive: -14.2%.

For `COC(=O)c1cc2c(s1)N=C(c1ccccc1)N(C)P2(=O)N1CCOCC1` (stereo not drawn), the inhibition is inactive: 31.6%.

`CN(C)C(=O)Oc1noc2ccccc12`: the inhibition is inactive: 34.9%.

For `O=c1c2cc([N+](=O)[O-])ccc2[nH]c2c([N+](=O)[O-])cc([N+](=O)[O-])cc12`, the inhibition is inactive: 14.7%.

For the compound `Cc1ccccc1OP(=O)(Nc1ccccn1)Oc1ccccc1C`, the inhibition was inactive: 17.2%.

For `CCOc1ccc(C2=NCC(CBr)S2)cc1` (stereo not drawn), the inhibition is inactive: 9%.

With `CC(C)(C)C(=O)NC(Sc1ccccc1)C(Cl)(Cl)Cl` (stereo not drawn), the inhibition was inactive: 24.3%.

Consider `C[C@@H]1C=CCP(=O)(Oc2ccccc2)O1` (stereo partly drawn), for which the inhibition is inactive: 6.5%.

`C[C@H]1OP(=O)(Oc2ccccc2)C[C@@H]2O[C@@H]21` (stereo partly drawn): the inhibition was inactive: 14.2%.

`CC(=O)c1ccc(N2CC2c2ccncc2)cc1` (stereo not drawn): the inhibition was inactive: 3%.

With `CC(=O)Nc1ccc(Oc2c([N+](=O)[O-])cc([N+](=O)[O-])cc2[N+](=O)[O-])cc1`, the inhibition is inactive: 22.2%.

`CC(=O)Nc1ccc([As](=O)(O)O)c(O)c1`: the inhibition was inactive: -11%.

Consider `CC(C)C(=O)NC(Sc1ccccc1)C(Cl)(Cl)Cl` (stereo not drawn), for which the inhibition is inactive: 46.3%.

Turning to `O=P(Nc1nccs1)(c1ccccc1)c1ccccc1`, the inhibition was inactive: 7.2%.

Regarding `c1nnnn1CCn1cnnn1`, the inhibition is inactive: 11.9%.

`O=P(Nc1ccccn1)(c1ccc(Br)cc1)c1ccc(Br)cc1`: the inhibition is inactive: 21.5%.

For the compound `CN(C)C1(CNC(=O)c2ccc(Cl)c(S(N)(=O)=O)c2)CCCCC1`, the inhibition was inactive: 0.1%.

For `C[C@H]1OP(=O)(Oc2ccccc2)[C@H](O)[C@H](O)[C@H]1N=[N+]=[N-]` (stereo partly drawn), the inhibition was inactive: 14.2%.

In the case of `O=P(Nc1nc2ccccc2s1)(c1ccccc1)c1ccccc1`, the inhibition is inactive: 16.6%.

`O=[As](O)(c1ccccc1)c1ccc(O)cc1`: the inhibition was inactive: -14.1%.

One may read the inhibition as the change of the read-out against control, counted positive when it falls.
